Molecules are shown by their SMILES. Calls of active or inactive are those of the source. The calls are words filed in the database; no cut-off is given here.

Amino acid sequences for entries named in this document (tags omitted).
UniProt P07947, whole entry, looked up: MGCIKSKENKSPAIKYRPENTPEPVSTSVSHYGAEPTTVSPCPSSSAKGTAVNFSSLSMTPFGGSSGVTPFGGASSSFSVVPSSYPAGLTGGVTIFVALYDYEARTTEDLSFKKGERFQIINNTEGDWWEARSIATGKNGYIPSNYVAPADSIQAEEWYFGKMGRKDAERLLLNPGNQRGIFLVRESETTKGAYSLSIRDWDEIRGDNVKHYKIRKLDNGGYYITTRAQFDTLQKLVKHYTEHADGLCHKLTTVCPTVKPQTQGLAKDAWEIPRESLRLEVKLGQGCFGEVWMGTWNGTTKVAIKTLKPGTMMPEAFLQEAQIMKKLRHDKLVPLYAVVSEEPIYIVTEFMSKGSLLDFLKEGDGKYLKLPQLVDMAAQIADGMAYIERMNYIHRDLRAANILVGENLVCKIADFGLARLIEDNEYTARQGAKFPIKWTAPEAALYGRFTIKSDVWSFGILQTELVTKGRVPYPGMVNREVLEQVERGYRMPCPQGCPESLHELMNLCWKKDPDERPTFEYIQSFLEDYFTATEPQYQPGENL

Assay [1] deals with Tyrosine-protein kinase Yes (Homo sapiens) (UniProt P07947). The following applies: NCI-H1975, 1 uM.
The target is the same in assay [2]. The following applies: HCC827, 1 uM.

Regarding `C=CC(=O)Nc1ccccc1Nc1nc(Nc2ccc(N3CCN(C)CC3)cc2)ncc1C(=O)Nc1c(C)cccc1Cl`, the inhibition entry in assay [1] and in assay [2] was “Active” each time.

These data come from ChEMBL document CHEMBL4354843, “Structure-Based Design of a Potent and Selective Covalent Inhibitor for SRC Kinase That Targets a P-Loop Cysteine” (J Med Chem, 2020).
